# Experimental data reported in the kinase profiling compilation of Christmann-Franck et al. (2016).
# Amino acid sequences for entries named in this document (tags omitted). A change or cut given only in a name is not applied to a line headed by its entry.
# UniProt P45983: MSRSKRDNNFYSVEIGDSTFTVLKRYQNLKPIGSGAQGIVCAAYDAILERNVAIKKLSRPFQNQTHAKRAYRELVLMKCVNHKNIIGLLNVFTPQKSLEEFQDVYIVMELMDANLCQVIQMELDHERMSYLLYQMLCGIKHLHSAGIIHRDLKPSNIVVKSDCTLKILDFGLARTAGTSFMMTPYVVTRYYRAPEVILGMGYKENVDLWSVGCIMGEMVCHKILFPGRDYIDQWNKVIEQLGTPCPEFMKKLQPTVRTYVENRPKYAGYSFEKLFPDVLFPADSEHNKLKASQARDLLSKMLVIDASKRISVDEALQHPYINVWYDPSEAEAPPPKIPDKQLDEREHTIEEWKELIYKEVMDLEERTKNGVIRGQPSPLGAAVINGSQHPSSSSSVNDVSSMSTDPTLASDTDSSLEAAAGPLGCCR
# UniProt P53779: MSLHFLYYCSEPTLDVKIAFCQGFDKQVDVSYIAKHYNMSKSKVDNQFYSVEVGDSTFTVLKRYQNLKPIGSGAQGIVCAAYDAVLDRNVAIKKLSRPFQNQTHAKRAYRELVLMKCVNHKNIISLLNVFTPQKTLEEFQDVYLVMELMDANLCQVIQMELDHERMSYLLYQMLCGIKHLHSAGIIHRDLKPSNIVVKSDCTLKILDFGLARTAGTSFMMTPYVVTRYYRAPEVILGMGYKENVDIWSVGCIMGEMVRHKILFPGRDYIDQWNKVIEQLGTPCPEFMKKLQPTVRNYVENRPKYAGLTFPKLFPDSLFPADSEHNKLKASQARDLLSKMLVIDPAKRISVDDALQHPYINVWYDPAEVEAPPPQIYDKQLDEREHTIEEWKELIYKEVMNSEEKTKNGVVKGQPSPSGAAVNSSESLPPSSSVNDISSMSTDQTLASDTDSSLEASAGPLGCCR
# Experiments:
# CPK1 (P.falciparum) = assay: KINOMEscan competition binding
# MAPK8 (human) = MAPK8 (human) (UniProt P45983); assay: radiometric filter-binding kinase assay
# MAPK10 (human) [1] = biological target: MAPK10 (human) (UniProt P53779); assay: radiometric filter-binding kinase assay
# MAPK10 (human) [2] = biological target: MAPK10 (human) (UniProt P53779)
Structure (SMILES),Kd (CPK1 (P.falciparum)) [nM],IC50 (MAPK8 (human)) [nM],IC50 (MAPK10 (human) [1]) [nM],IC50 (MAPK10 (human) [2]) [nM]
CN(C)C/C=C/C(=O)Nc1cccc(C(=O)Nc2ccc(Nc3nccc(-c4c(-c5ccccc5)nn5ccccc45)n3)cc2)c1,14,,,
Cc1cc(NC(=O)c2cccc(NC(=O)/C=C/CN(C)C)c2)ccc1Nc1nccc(-c2cccnc2)n1,,34.5,42.6,
CN(C)C/C=C/C(=O)Nc1cccc(C(=O)Nc2ccc(Nc3nccc(-c4cccnc4)n3)cc2)c1,,,13,0.7
